According to ChEMBL document CHEMBL5131571, “Design, Synthesis, and Evaluation of Lung-Retentive Prodrugs for Extending the Lung Tissue Retention of Inhaled Drugs” (J Med Chem, 2022):

Experiment: Stability of compound in PBS at pH 6.5 assessed as half life by LC-MS analysis
Format: physicochemical
Details: buffer
Outline: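 1000 ng/mL final (from 200 μg/mL D6-DMSO stock) in prewarmed matrix at 37 °C with continuous shaking, triplicate. Matrices: pH 6.5 or 7.4 phosphate buffer, 1 in 4 water-diluted Wistar Han lung homogenate (pH 6.8), or fresh rat blood. Timed aliquots quenched in MeCN with labetalol/reserpine internal standards. Half-life by MS, mean ± SD.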

Structure (SMILES): CC(OC(=O)CN(C)C)OC(=O)N1CCC(OC(=O)C(O)(c2ccccc2)c2ccccc2)CC1 (stereo unspecified)
- t1/2: 3.53 h
